The numbers were not newly measured in US10739353B2, “Suppression of cytokine release and cytokine storm” (SignPath Pharma Inc., priority 2014, dated 2020), which cites them from elsewhere.

For this series the following is noted: neonatal mouse; cited from earlier work.

Turning to `CN(C)c1ccc(O)c2c1C[C@H]1C[C@H]3[C@H](N(C)C)C(O)=C(C(N)=O)C(=O)[C@@]3(O)C(O)=C1C2=O` [minocycline], the ischemic brain injury result is given as “increased ischemic brain injury”.
